# The list shows a part of the results, in another mix than the full data. Calls of active or inactive are those of the source.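 Rule for the calls: active = initial fluorescence not abnormally high and integrated response B-score, plate-corrected, over 3 SD above library mean; inactive = the rest.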
# Chains of the proteins cited; added tags and fusions are not shown. Lines headed by an entry give the natural chain unless they say otherwise; changes in a name come on top.
# UniProt Q9GZV3, whole entry, stated change not applied: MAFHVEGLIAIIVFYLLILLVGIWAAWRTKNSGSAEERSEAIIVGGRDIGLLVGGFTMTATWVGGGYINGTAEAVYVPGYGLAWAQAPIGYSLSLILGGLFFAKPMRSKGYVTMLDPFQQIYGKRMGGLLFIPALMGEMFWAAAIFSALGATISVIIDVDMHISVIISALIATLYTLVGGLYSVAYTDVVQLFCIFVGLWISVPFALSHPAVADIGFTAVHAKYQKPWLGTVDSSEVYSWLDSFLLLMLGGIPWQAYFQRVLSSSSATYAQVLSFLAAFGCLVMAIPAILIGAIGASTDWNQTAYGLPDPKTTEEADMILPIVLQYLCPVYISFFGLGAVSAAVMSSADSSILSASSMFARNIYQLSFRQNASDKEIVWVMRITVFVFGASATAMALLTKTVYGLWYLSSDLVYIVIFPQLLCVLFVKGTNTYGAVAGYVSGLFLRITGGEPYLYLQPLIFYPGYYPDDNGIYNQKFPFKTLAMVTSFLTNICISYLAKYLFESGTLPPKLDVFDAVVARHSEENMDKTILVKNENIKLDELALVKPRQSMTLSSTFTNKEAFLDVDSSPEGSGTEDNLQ
# Biological target: High affinity choline transporter 1 (Homo sapiens) (UniProt Q9GZV3)
# Assay: CHT positive allosteric modulators, primary screen, cell-based, membrane potential dye, choline EC20 (AID 488977)
# Conditions: CHT-expressing cells, at 10 µM, LV-AA mutant CHT in HEK293 cells
row,SMILES,outcome
1,CC1=NCCc2c1[nH]c1ccccc21.O=[N+]([O-])c1cc([N+](=O)[O-])c(O)c([N+](=O)[O-])c1,inactive
